The values below come from paper PMC10354055, “An optimized Nurr1 agonist provides disease-modifying effects in Parkinson’s disease models” (Nature Communications, 2023).

In this experiment the test system is MPTP-induced male mice. Description: Rotarod, sub-chronic MPTP-induced PD model mice. The class given is in vivo, mouse. The conditions noted are these: Figure 4b, individual animal values. As to the method:
MPTP (Sigma-Aldrich) was intraperitoneally (i.p.) injected (30 mg/kg) for 5 days (Day 1-5). […] To test dyskinetic involuntary behavior, an L-DOPA injected group was included, which received 50 mg/kg of L-DOPA and 15 mg/kg of benserazide (Sigma-Aldrich) (i.p.) for 16 days (Day 1–16). All compounds were administered 6 h post-MPTP injection to avoid any effect of compounds on the MPTP metabolism in the brain. Motor and non-motor related behavior tests were performed on the following days as described in Fig. 4a in an assessor- and observer-blinded fashion. Pre-training and baseline setup for motor-related behaviors were performed 3 days prior to the injections. Mice were sacrificed and subjected to immunohistochemistry. Mice were housed at the Animal Care Facilities of McLean Hospital under a 12-h light/12-h dark cycle, ambient temperature and humidity. Animals were handled in accordance with McLean Hospital’s Institutional Animal Care and Use Committee (Protocol #: 2015N000002) and followed National Institutes of Health guidelines.
Mice were pre-trained on an automated 5-lane rotarod unit (10 rpm, 3 min) for 2 days and the baseline was measured (10 rpm, 90 sec) before the rotarod test (3 days before the MPTP injection or the first rotarod test at week 2). […] Time on the rotating rod was measured automatically by placing a trip switch under the floor beneath the rotating drum.

Several values for one entry are separate records, joined by “and”; a condition that tells them apart may be missing. Identical values can stand only once.

In the case of `CCN(CC)CCCC(C)Nc1ccnc2cc(Cl)ccc12` (stereo not shown) [CQ, chloroquine], the “Latency to fall” value is 112.77 s and 112.27 s.
